# In US10869922B2 (priority 2016, dated 2020):
# System: OVA
# Assay: Serum antibody titer by self-coated ELISA, OVA model
# Type: in vivo, mice
# Settings: serum 7th day after last immunization, FIG. 3
substance,measurement,value
Ovalbumin,production of antibody,could hardly produce antibodies
